Results taken from EP1903056A2.

Legend:
Experiment in all cases: competition binding assay, purified HLA class I
[1] = biological target: HLA-B*1801 (human)
[2] = biological target: HLA-B*4501 (human)
[3] = biological target: HLA-B*4001 (human)

Row | IC50 [1] [µM] | IC50 [2] [µM] | IC50 [3] [µM] | Substance
1 | 17.7 | 15.1 | – | WEELSML (MAGE2 position 234, 7-mer) (peptide)
2 | 8.29 | – | 6.58 | WEELSML (MAGE2 position 252, 7-mer) (peptide)
